## Reported melting point values for industrial, environmental and drug-like chemicals

Values as listed in the OPERA 2.9 repository of K. Mansouri.

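The OPERA project collected these measurements from public sources as training and test data for property models. A listed value is a point estimate from one report or more. Method and conditions are not stated for these values. A value may pool stereoisomers or salt forms, and the file does not say which form was measured. Some entries may be limits or estimates that an upstream database listed as plain numbers.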

Melting points are in °C.
Cells with "–" have no entry in this list.

mp (°C)	compound	name
75	Cc1nc(-c2ccc(F)cc2)cs1	4-(4-Fluorophenyl)-2-methylthiazole
82	COC(=O)c1cc(S(=O)(=O)Cl)ccc1O	Methyl 5-(chlorosulfonyl)-2-hydroxybenzoate
119	Nc1ccccc1S(=O)(=O)Nc1ccccc1	2-Amino-N-phenyl-benzenesulfonamide
99	COc1cc(C)c(S(=O)(=O)Cl)cc1C	4-methoxy-2,5-dimethylbenzenesulfonyl chloride
180	NC(=O)c1ccc(Cl)cc1N	2-Amino-4-chlorobenzamide
251	Nc1nnc(-c2ccco2)s1	5-(Furan-2-yl)-1,3,4-thiadiazol-2-amine
201.8	Nc1nc(NC2CC2)c2ncn([C@H]3C=C[C@@H](CO)C3)c2n1.O=C(O)CCCC(=O)O	–
245	Cc1[nH]c(C(=O)O)c(C)c1C(=O)O	3,5-dimethyl-1H-pyrrole-2,4-dicarboxylic acid
-15	C=CCCCCCCCCC(=O)OCCCCCCC	Heptyl 10-undecenoate
184	Cc1nccn1-c1ccc(C(F)(F)F)cc1N	2-(2-methyl-1H-imidazol-1-yl)-5-(trifluoromethyl)aniline
99.5	Nc1ncc(C(F)(F)F)cc1Br	3-Bromo-5-(trifluoromethyl)pyridin-2-amine
29.5	O=C(Cl)C=Cc1cccc(C(F)(F)F)c1	3-(Trifluoromethyl)cinnamoyl chloride
215	O=c1oc2cc(O)ccc2c2c1CCC2	7-Hydroxy-2,3-dihydrobenzo[b]cyclopenta[d]pyran-4(1H)-one
105	Nc1ccc(-n2cnc3ccccc32)cc1	4-(1H-benzimidazol-1-yl)aniline
63	CS(=O)(=O)c1ccccc1N	2-(Methanesulfonyl)anilinato
117	COc1ccc(NC(=O)OC(C)(C)C)c(N)c1	tert-butyl N-(2-amino-4-methoxyphenyl)carbamate
249	Nc1nc(-c2nc3ccccc3s2)cs1	4-(1,3-Benzothiazol-2-yl)-1,3-thiazol-2-amine
100	Cc1ccc(C)n1CC(=O)O	(2,5-Dimethyl-1H-pyrrol-1-yl)acetic acid
257	C#C[C@]1(O)CC[C@H]2[C@@H]3CC=C4CC5(CC[C@]4(C)[C@H]3CC[C@@]21C)OCCO5	–
126	COc1ccc(N2C(=O)C=CC2=O)c(OC)c1	1-(2,4-Dimethoxyphenyl)-1H-pyrrole-2,5-dione
65	ClC(Cl)(Cl)C(c1ccccc1)c1ccccc1	1,1'-(2,2,2-Trichloroethylidene)dibenzene
206	CCCC1(CCC)NC(=O)NC1=O	5,5-dipropyl-imidazolidine-2,4-dione
9.35	O=C(O)CCC(CC(=O)O)(C(=O)O)P(=O)(O)O (stereo not drawn)	2-Phosphono-1,2,4-butanetricarboxylic acid
45.5	COc1ccc(F)c(F)c1O	2,3-Difluoro-6-methoxyphenol
242	Cc1ccc(-c2nnc(Cl)c3ccccc23)cc1C	1-chloro-4-(3,4-dimethylphenyl)phthalazine
95	Cc1cccc(Oc2ccc(Cl)cc2N)c1	5-chloro-2-(3-methylphenoxy)aniline
136	CCOC(=O)c1c(N)oc(C)c1C(C)=O	ethyl 4-acetyl-2-amino-5-methyl-3-furoate
149	O=C(O)C1CSC(c2cccs2)N1 (stereo not drawn)	2-(Thiophen-2-yl)-1,3-thiazolidine-4-carboxylic acid
100	CN(C)c1cccc(C(=O)NN)c1	3-(dimethylamino)benzohydrazide
154	Cc1ccc(-c2nc(N)sc2-c2ccc(C)cc2)cc1	4,5-Di-p-tolyl-thiazol-2-ylamine
280	O=C(O)Cn1ccc(O)nc1=O	(4-Hydroxy-2-oxopyrimidin-1(2H)-yl)acetic acid
62	Cc1ccc(C(C)C)c(OC(C)C(=O)O)c1 (stereo not drawn)	2-(2-isopropyl-5-methylphenoxy)propanoic acid
207	CC(C)(C)/C([O-])=C/C(=O)C(F)(F)C(F)(F)C(F)(F)F.CC(C)(C)/C([O-])=C/C(=O)C(F)(F)C(F)(F)C(F)(F)F.CC(C)(C)/C([O-])=C/C(=O)C(F)(F)C(F)(F)C(F)(F)F.[Nd+3]	–
238	Clc1ncnc2ncccc12	4-Chloropyrido[2,3-d]pyrimidine
78.5	OC[C@@]1(O)CO[C@](O)(CO)CO1	1,3-Dihydroxyacetone dimer
124	N#Cc1ccc(N2CCOCC2)nc1	6-morpholinonicotinonitrile
152	NNc1cc(Cl)ncn1	4-Chloro-6-hydrazinopyrimidine
269	O=c1nc[nH]c2ccc(Br)cc12	6-bromoquinazolin-4-ol
65	NNC(=O)Cc1cccs1	2-(2-thienyl)acetohydrazide
153	N=C(NO)C12CC3CC(CC(C3)C1)C2	N-Hydroxyadamantane-1-carboximidamide
145	NS(=O)(=O)C1CCS(=O)(=O)C1 (stereo not drawn)	tetrahydrothiophene-3-sulfonamide 1,1-dioxide
139	Nc1ccc(Br)cc1O	2-Amino-5-bromophenol
150	N#CCC(=O)c1cccc([N+](=O)[O-])c1	3-(3-Nitrophenyl)-3-oxopropanenitrile
80	COC(=O)c1ccc(C=O)o1	Methyl 5-formyl-2-furoate
-42	FC(F)C(F)(F)C(F)(F)C(F)(F)C(F)(F)C(F)(F)C(F)(F)F	1-Hydroperfluoroheptane
164	COc1ccc(C(=O)NC(C(=O)O)C(C)C)cc1 (stereo not drawn)	N-(4-Methoxybenzoyl)valine
174	O=c1cc(CCl)nc2ccccn12	2-(chloromethyl)-4H-pyrido[1,2-a]pyrimidin-4-one
75	CN1CCN(C(=O)c2ccccc2N)CC1	(2-Aminophenyl)(4-methylpiperazin-1-yl)methanone
104	O=CC1=Cc2cc(Br)ccc2OC1	2H-1-Benzopyran-3-carboxaldehyde, 6-bromo-
187.5	CC(=O)[O-].CCN(CC[N+](C)(C)CC(C)O)c1ccc(/N=N/c2ccc([N+](=O)[O-])cc2Cl)cc1 (stereo partly drawn)	–
99	CCOC(=O)c1c(C)oc(N)c1C#N	Ethyl 5-amino-4-cyano-2-methylfuran-3-carboxylate

Again, the 7 entries with the lowest mp:

compound	name	mp (°C)
FC(F)C(F)(F)C(F)(F)C(F)(F)C(F)(F)C(F)(F)C(F)(F)F	1-Hydroperfluoroheptane	-42
C=CCCCCCCCCC(=O)OCCCCCCC	Heptyl 10-undecenoate	-15
O=C(O)CCC(CC(=O)O)(C(=O)O)P(=O)(O)O (stereo not drawn)	2-Phosphono-1,2,4-butanetricarboxylic acid	9.35
O=C(Cl)C=Cc1cccc(C(F)(F)F)c1	3-(Trifluoromethyl)cinnamoyl chloride	29.5
COc1ccc(F)c(F)c1O	2,3-Difluoro-6-methoxyphenol	45.5
Cc1ccc(C(C)C)c(OC(C)C(=O)O)c1 (stereo not drawn)	2-(2-isopropyl-5-methylphenoxy)propanoic acid	62
CS(=O)(=O)c1ccccc1N	2-(Methanesulfonyl)anilinato	63